According to publication PMC6467762 (ACS infectious diseases, 2018):
Substitutions are numbered along the chain they refer to.

Tests used:
[1] = molecular target: T1, PfDHODH WT (Plasmodium falciparum, UniProt Q08210); assay: Recombinant PfDHODH inhibition, direct assay; format: biochemical
T1 sequence (Q08210 158-569): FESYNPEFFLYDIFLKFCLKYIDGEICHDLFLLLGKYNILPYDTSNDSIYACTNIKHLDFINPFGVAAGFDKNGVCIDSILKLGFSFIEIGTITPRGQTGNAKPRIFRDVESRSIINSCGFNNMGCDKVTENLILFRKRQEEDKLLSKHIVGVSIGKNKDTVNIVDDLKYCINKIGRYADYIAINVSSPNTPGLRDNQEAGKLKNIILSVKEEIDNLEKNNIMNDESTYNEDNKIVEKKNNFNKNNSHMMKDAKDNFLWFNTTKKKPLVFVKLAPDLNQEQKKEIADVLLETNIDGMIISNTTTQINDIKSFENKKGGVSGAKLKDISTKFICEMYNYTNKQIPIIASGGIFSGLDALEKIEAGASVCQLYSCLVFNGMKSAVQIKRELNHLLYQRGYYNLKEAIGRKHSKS

[2] = molecular target: T2, PfDHODH C276F (Plasmodium falciparum, UniProt Q08210, C276F); assay: Recombinant PfDHODH inhibition, direct assay; format: biochemical
T2 sequence (Q08210 158-569 C276F): T1 sequence (Q08210 158-569) with C119F

`Cc1cc(Nc2ccc3ccccc3c2)n2ncnc2n1` [DSM1, 5-methyl-N-(naphthalen-2-yl)-[1,2,4]triazolo[1,5-a]pyrimidin-7-amine] was tested, and the IC50 [1] was 37 ± 5 nM and the IC50 [2] was 67 ± 20 nM.
